Results on 8 molecules are retold here after US12116358B2, “Substituted indoles and methods of use thereof” (EPIZYME, INC., priority 2018, dated 2024).

Protein sequences, listed by entry. Tags and fused reporters are not part of them. Residues count along the entry.
UniProt Q9BYW2, 1434-1711 limits assumed: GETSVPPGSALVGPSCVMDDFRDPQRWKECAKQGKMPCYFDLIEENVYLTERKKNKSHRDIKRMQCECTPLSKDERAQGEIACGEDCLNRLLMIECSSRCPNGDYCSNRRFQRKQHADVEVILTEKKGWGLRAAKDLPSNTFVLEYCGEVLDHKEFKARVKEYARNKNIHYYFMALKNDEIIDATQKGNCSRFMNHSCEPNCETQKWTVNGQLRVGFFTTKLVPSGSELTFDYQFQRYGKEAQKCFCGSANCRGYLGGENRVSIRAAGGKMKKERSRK

The experiment concerns the target SETD2(1434-1711) (Homo sapiens, UniProt Q9BYW2). Nature of the experiment: SETD2 (1434-1711) assay. Particulars: read-out: SETD2 (1434-1711). In kind it is biochemical.
As to `Cc1cccc2cc(C(=O)N[C@H]3C[C@H]4CC[C@@H](C3)N4C(=O)CCCN)[nH]c12` (relative stereo), the IC50 amounted to 25200 nM.

As to `Cc1ccc(F)c2cc(C(=O)N[C@@H]3CCC[C@@H](N4CCCC5(CCNC5=O)C4)C3)[nH]c12` (some centres unmarked), the IC50 turned out to be 4900 nM.

Take `Cc1cccc2cc(C(=O)N[C@@H]3CCN(C(=O)CCCN)C[C@H]3C)[nH]c12`: the IC50 came out at 50000 nM.

With `Cc1ccc(F)c2cc(C(=O)NC3CCCC(N4CCN(C(=O)C(F)F)CC4)C3)[nH]c12` (single isomer, unassigned) [878], the IC50 was 20 nM.

`Cc1ccc(F)c2cc(C(=O)N[C@@H]3CCC[C@@H](N4CCNCC4)C3)[nH]c12`: the IC50 amounted to 1500 nM.

For `Cc1ccc(F)c2cc(C(=O)N[C@@H]3CCC[C@H](N4CC[C@@H](N(CCO)S(C)(=O)=O)C4)C3)[nH]c12`, the IC50 was 20 nM.

Take `Cc1ccc(F)c2cc(C(=O)NC3CCCC(N4CCN(C(=O)C(F)F)CC4)C3)[nH]c12` (single isomer, unassigned) [879]: the IC50 amounted to 600 nM.

Take `Cc1ccc(F)c2cc(C(=O)NC3CCCC(N4CCN(C(=O)CO)CC4)C3)[nH]c12` (centres unmarked): the IC50 was found to be 700 nM.
